The list shows a part of the results, in another mix than the full data. Activity calls are given as the source filed them.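 The calls were made as follows: active = inhibition above about 50% at the single test dose (limit read from the data); inactive = the rest.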

Amino acid sequences for entries named in this document (tags omitted). Residues count along the entry.
UniProt Q9BQF6, 706-1050 limits assumed: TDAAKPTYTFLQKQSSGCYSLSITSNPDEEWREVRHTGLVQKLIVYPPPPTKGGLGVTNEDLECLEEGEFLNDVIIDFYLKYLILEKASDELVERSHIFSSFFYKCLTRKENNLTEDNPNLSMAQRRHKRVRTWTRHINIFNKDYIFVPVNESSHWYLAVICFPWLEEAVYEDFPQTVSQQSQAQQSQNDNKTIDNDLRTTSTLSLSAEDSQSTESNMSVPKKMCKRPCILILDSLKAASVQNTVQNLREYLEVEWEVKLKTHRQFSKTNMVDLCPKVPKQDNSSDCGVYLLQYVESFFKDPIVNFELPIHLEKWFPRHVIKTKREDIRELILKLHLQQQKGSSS

The assay concerns the target Sentrin-specific protease 7 (Homo sapiens) (UniProt Q9BQF6). Briefly: blockers of human SENP7 peptidase activity – biochemical, luminescence, uHTS, primary screen (AID 434973).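 Also: plate controls were DMSO with enzyme for no effect and no enzyme buffer wells for full effect.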 The settings on record: recombinant SENP7, Z-RLRGG-aminoluciferin luminescence, 40 min; at 5 µM; stronger effect = higher value.
Regarding `CC(C)(C)OC(=O)N1CCC(N(C(=O)c2ccccc2)c2ccc(Cl)cc2)CC1`, the inhibition (as a rule, the relative decrease from the control value, in per cent) is inactive: 6.04%.
Then `N#Cc1ccc(C(=O)NCC2(N3CCCCC3)CCCCC2)cc1`, with inactive: 10.4%; and `CCCN1CCC(Nc2cc(OC)cc(OC)c2)CC1`, with inactive: 8.14%; and `c1ccc(CN2CCC(Nc3ccccc3)CC2)cc1`, with inactive: -10.4%.
Then `CN(C)C1(CNC(=O)c2cccc(C#N)c2)CCCCC1`, with inactive: -7.4%; and `O=C(NCC1(N2CCOCC2)CCCCC1)c1cc(Br)ccc1Cl`, with inactive: -3.93%.
Next, `COc1cc(C(=O)NCC2(N3CCOCC3)CCCCC2)cc(OC)c1C`: inactive: 3.59%.
For `COc1ccc(C(=O)NCC2(N3CCOCC3)CCCCC2)cc1OC`, the inhibition is inactive: 1.38%.
Next, `N/C(=N\O)c1c(N)no[n+]1[O-]`: inactive: -10.2%; `CCOC(=O)N1CCC(Nc2ccc(C)cc2)CC1`: inactive: 3.82%.
Consider `O=C(OC1CN2CCC1CC2)C1c2ccccc2C=Cc2ccccc21` (stereo not given), for which the inhibition is inactive: 5.46%.
Then `CCc1cc(C(=O)NCC2(N3CCCCC3)CCCCC2)sc1C`, with inactive: 1.33%; and `CN1CCC(Nc2ccc(F)c(Cl)c2)CC1`, with inactive: 11.4%; and `CCOc1ncccc1C(=O)NCC1(N2CCOCC2)CCCCC1`, with inactive: 3.54%.
Then `CCCOc1ccc(C(=O)NCC2(N(C)C)CCCCC2)cc1`, with inactive: -1.71%; and `O=C(O)C1(Nc2ccccc2)CCN(Cc2ccccc2)CC1`, with inactive: -6.53%.
Then `CC(C)(C)OC(=O)N1CCC(Nc2ccccc2)CC1`, with inactive: 5.34%; and `CCC(CO)(C(=O)OC1CN2CCC1CC2)c1ccccc1` (stereo not given), with inactive: 6.93%; and `COc1cc(OC)cc(C(=O)NCC2(N3CCOCC3)CCCCC2)c1`, with inactive: -5.25%.
`COc1cccc(C(=O)N(c2cc(C)cc(C)c2)C2CCN(C(=O)OC(C)(C)C)CC2)c1`: the inhibition is inactive: -3.88%.
For the compound `CCCOc1ccc(C)cc1CN(CCCl)CCCl`, the inhibition was inactive: 8.48%.
Next, `CN1CCC(Nc2ccc(Cl)cc2)CC1`: inactive: -5.84%; `COc1cc(OC)cc(C(=O)NCC2(N3CCCCC3)CCCCC2)c1`: inactive: -4.81%.
Next, `Fc1ccccc1NC1CCN(Cc2ccccc2)CC1`: inactive: -12%; `Cc1ccc(C(=O)NCC2(N3CCCCC3)CCCCC2)o1`: inactive: -4%; `CCN1CCC(Nc2cccc(F)c2)CC1`: inactive: -0.183%.
Then `CN(C)c1ccc(C(=O)NCC2(N3CCCCC3)CCCCC2)cc1`, with inactive: -3.18%.
In the case of `O=C(NCC1(N2CCCCC2)CCCCC1)c1ccco1`, the inhibition was inactive: -4.9%.
Then `CCOc1ccc(C)cc1CN(CCCl)CCCl`, with inactive: 6.16%; and `COc1ccc(NC2CCN(CCc3ccccc3)CC2)c(OC)c1`, with inactive: -4.48%.

For the origin of these results see PubChem BioAssay AID434973 (Sanford-Burnham Center for Chemical Genomics, 2010).
